Data on one substance can be found in US20040248766A1, “Selective inhibition of intracellular amyloid-beta neurotoxicity in human neurons” (priority 2001, published 2004).

In this test the test system is primary human neurons. The test can be described thus: Microinjection of Aβ peptides into the cytosol of primary human neurons, cell death by TUNEL. Format: cell-based. The conditions noted are these: peptide microinjected into cytosol. The method, then: Cell cultures. Primary cultures of human neurons and astrocytes were prepared as described in LeBlanc, A., J. Neurosci. 15:7837-46 (1995), incorporated herein by reference. Fresh brain tissues were dissociated with 0.25% trypsin (Gibco-BRL) in phosphate buffered saline (PBS) at 37° C. for 15 minutes. The trypsin was inactivated. by adding 10% decomplemented fetal bovine serum (FBS, HyClone, Logan, Utah.) to the mixture. The dissociated tissues were triturated in 0.1 mg/ml DNaseI (Gibco-BRL) to obtain a homogeneous mixture. The mixture was filtered successively through 130 and 70 gm filters and centrifuged at 15,000 g for 10 minutes at 10° C. to pellet the cells. The cell pellet was washed once with PBS and once with minimal essential media (MEM, Gibco-BRL) in Earle's balanced salt solution containing 0.225% sodium bicarbonate, 1 mM sodium pyruvate, 2 mM L-glutamine, 0.1% dextrose, 1×antibiotic Pen-Strep (all from Gibco-BRL) and 5% decomplemented FBS.
The cells were plated on poly-L-lysine-coated ACLARTM (Cat. No.: 33C; thickness: 0.5 mm; Allied Chemical, Minneapolis, Minn.) coverslips at a density of 3×10^6 cells/ml. Neurons and astrocytes were incubated at 37° C. in the MEM media with 5% CO2, and the media were changed every 48 hours. […]

As for “Aβ2-42: Aβ2-42 generated by caspase cleavage, lacks N-terminal aspartic acid”, the “intracellular toxicity to human neurons (in words)” value is recorded as “not found to be neurotoxic”.
